Test results: patent publication US20190262330A1, “Method of Treating Hepatocellular Carcinoma Using N-(4-(6,7-dimethoxyquinolin-4-yloxy)phenyl)-N′-(4-fluorophenyl)cyclopropane-1,1-dicarboxamide, (2S)-hydroxybutanedioate” (Exelixis, Inc., priority 2017, published 2019)
Where two headings read alike, the source gives them in different places.

Sequences of proteins named here, by UniProt entry; tags and fusion partners are left off. Residues count along the entry.
UniProt Q06418, 41-890: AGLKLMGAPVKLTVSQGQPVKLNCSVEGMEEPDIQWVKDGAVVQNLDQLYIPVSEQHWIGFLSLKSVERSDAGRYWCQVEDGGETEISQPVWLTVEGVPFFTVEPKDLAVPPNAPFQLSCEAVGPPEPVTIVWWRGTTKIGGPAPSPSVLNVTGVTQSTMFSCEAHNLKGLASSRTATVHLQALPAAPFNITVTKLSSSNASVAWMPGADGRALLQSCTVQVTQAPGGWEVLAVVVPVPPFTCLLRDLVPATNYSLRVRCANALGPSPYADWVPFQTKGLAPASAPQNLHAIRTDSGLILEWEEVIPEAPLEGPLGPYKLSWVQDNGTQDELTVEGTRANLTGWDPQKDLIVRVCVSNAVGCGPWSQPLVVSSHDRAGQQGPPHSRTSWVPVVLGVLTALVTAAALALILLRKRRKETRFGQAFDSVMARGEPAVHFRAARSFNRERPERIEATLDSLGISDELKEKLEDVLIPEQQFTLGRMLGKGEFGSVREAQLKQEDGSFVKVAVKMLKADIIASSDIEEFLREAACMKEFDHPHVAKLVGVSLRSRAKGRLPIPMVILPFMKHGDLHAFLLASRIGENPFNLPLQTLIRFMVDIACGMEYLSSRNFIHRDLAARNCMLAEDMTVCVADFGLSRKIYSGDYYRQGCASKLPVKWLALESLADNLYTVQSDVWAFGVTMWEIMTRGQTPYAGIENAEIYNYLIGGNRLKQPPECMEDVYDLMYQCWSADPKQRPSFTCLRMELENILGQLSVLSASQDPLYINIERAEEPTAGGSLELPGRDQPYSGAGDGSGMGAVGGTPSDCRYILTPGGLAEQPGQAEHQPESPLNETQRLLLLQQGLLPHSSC

Experiments:
[1] = test system: pregnant rats and rabbits
TYRO3 = TYRO3 (Homo sapiens, UniProt Q06418); conditions: in vitro

COc1cc2nccc(Oc3ccc(NC(=O)C4(C(=O)Nc5ccc(F)cc5)CC4)cc3)c2cc1OC [cabozantinib]
Embryofetal findings after administration during organogenesis ([1]; in vivo): embryolethality at exposures below those occurring clinically at the recommended dose | Embryofetal findings after administration during organogenesis ([1]; pregnant animals): embryofetal lethality and structural anomalies at exposures that were below those occurring clinically at the recommended dose | Tyrosine kinase activity of TYRO3 (TYRO3): inhibits
